Literature values, collected in PMC3569036.

Biological target: eNOS (Bos taurus) (UniProt P29473)

Kd: < 1 nM
Substance: Calmodulin (from UniProt P0DP23)
